Assay results reported in US9701670B2, “Pyrazolyl-ureas as kinase inhibitors” (RESPIVERT LIMITED, priority 2013, dated 2017).

Sequences of proteins named here, by UniProt entry; tags and fusion partners are left off.
UniProt Q16539, whole entry: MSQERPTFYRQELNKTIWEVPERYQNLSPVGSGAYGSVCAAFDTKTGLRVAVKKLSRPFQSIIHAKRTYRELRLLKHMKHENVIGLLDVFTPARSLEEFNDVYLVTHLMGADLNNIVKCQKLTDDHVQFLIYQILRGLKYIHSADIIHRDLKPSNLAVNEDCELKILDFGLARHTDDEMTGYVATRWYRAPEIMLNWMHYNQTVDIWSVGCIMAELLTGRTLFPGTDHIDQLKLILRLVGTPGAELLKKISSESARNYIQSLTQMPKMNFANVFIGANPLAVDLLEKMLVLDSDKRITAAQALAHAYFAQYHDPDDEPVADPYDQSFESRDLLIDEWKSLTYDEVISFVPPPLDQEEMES

Target: p38 MAPKα isoform (MAPK14) (Homo sapiens (Human), UniProt Q16539)
Assay: p38 MAPKα enzyme inhibition (FRET, Z-LYTE), Method 1
Assay type: biochemical
Details: Method 1 (Table 4a1)
Procedure: The enzyme inhibitory activities of compounds disclosed herein are determined by FRET using synthetic peptides labelled with both donor and acceptor fluorophores (Z-LYTE, Invitrogen Ltd., Paisley, UK).
The inhibitory activities of test compounds against the p38 MAPKα isoform (MAPK14: Invitrogen), are evaluated indirectly by determining the level of activation/phosphorylation of the down-stream molecule, MAPKAP-K2. The p38 MAPKα protein (80 ng/mL, 2.5 μL) is mixed with the test compound (2.5 μL of either 4 μg/mL, 0.4 μg/mL, 0.04 μg/mL or 0.004 μg/mL) for 2 hr at RT. […] The mixture is incubated for 1 hr at RT. Development reagent (protease, 5 μL) is added for 1 hr prior to detection in a fluorescence microplate reader (Varioskan® Flash, ThermoFisher Scientific).
In all cases, the site-specific protease cleaves non-phosphorylated peptide only and eliminates the FRET signal. Phosphorylation levels of each reaction are calculated using the ratio of coumarin emission (donor) over fluorescein emission (acceptor), for which high ratios indicate high phosphorylation and low ratios indicate low phosphorylation levels.

With `Cc1ccc(-n2nc(C(C)C)cc2NC(=O)Nc2ccc(Oc3ccnc(Nc4cccc(C(=O)NCCN5CCOCC5)c4)n3)c3ccccc23)cc1` [Example 19, 3-((4-((4-(3-(3-isopropyl-1-(p-tolyl)-1H-pyrazol-5-yl)ureido)naphthalen-1-yl)oxy)pyrimidin-2-yl)amino)-N-(2-morpholinoethyl)benzamide] the IC50 was 2 nM.
